Ab-14 light chain CDR variants: yeast mating affinities

Reference: Li et al. 2023, doi:10.1038/s41467-023-39022-2. File: FLAb, binding data.

Antigen: PDVDLGDISGINAS, a 14-residue peptide of the SARS-CoV-2 spike HR2 region.

The variants keep the heavy chain, the linker and the frameworks of Ab-14 (scFv order VH, the linker GGGGSGGGGSGGGGS, VL).
VH: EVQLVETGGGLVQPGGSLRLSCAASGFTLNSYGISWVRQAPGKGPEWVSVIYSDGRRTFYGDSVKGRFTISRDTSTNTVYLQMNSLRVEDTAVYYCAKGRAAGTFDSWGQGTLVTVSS
VL: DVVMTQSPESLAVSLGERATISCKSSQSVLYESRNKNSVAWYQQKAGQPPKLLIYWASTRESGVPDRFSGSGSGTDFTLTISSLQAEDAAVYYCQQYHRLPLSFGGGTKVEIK

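Designed CDR sequences, proposed from the first random library and measured here. Group labels follow the data file (Ctrl: baseline library sampled from a position-specific scoring matrix, with some repeated check sequences; En: ensemble of fine-tuned language models; GP: Gaussian process model; HC: hill climbing; Gen: genetic algorithm; Gibbs: Gibbs sampling; a sequence that several methods proposed may carry one label only). In AlphaSeq, yeast of one mating type display the scFv and yeast of the other type display the target. Pairs that bind mate more often; barcode pairs of the diploids are counted by sequencing. Each replicate has its own calibration line, from reference interactions of the BCL2 family. The assay was run in six technical replicates.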

The parent's light chain CDRs are KSSQSVLYESRNKNSVA, WASTRES, QQYHRLPLS; each variant's own CDRs replace them letter for letter. Values are apparent Kd, the geometric mean of the replicates that gave a signal; lower means stronger binding. An entry "nd" has no value in the source: the pair was not observed among the diploids in any replicate. This suggests poor binding but is not conclusive. The range of this assay differs from that of the first round, and the authors advise against merging the two.

CDR-L1	CDR-L2	CDR-L3	group	apparent Kd	detected
KVSPSMWYESRNKNNVA	HASTRES	QQYHRLPLH	GP_Gibbs	39 nM	6 of 6
KSFQSELDENRNDNSVA	SASTRLS	QQYHRLPLS	GP_Gibbs	1.9 nM	6 of 6
KLEQSTLYESRNKNSVA	WASTRLS	QQYHRLPLS	GP_HC	1.1 nM	6 of 6
KVSEFMRGLMKKQDSIA	DNETRGA	QQYDRLPLS	En_Gen	22 nM	6 of 6
KLREVQHVESKQRNNVA	DNDTREY	QDYYRLPLS	En_HC	260 nM	5 of 6
KCSSSVLPESQNKNPVA	WASTREH	QQYGRLPLS	Ctrl	3.4 nM	6 of 6
MLTWGDDHETGRQNSIA	HAHERNT	QQYHQLPLT	En_Gibbs	3.6 nM	6 of 6
YVSGQLAEGWNQQEAIA	HVSYKED	QQYYKLPLS	En_Gibbs	150 nM	2 of 6
TISNSFMMENQFKNSVA	QAQTRES	QCYDRLPLS	En_HC	8.3 nM	6 of 6
KWSFSVSGESRNKNSVA	DASTRES	QQYERLPLS	GP_Gibbs	390 pM	6 of 6
KLEQSVLYESRNKNSVA	NASTREQ	QQYHRLPLS	GP_Gen	nd	0 of 6
KSSQSVLYESRNKNPVA	WASTRES	QQYHRLPLS	Ctrl	580 nM	1 of 6
KLQSLWLYESRNKNNVA	NASTRYS	QQYHRLPLS	GP_Gibbs	740 pM	6 of 6
ALGDVTRMESNKKNSIA	DMSNRES	QQYDRLPLS	En_HC	62 nM	6 of 6
KMSQSVLMEKRNKNSVA	DASLRES	QQYHRLPLS	GP_HC	570 pM	6 of 6
KLSGSVLYESRNKNSVA	HASTRES	QQYHRLPLS	GP_Gen	570 pM	6 of 6
KLGSSTRFESSNKASIA	DNSTREE	QQYHRLPLS	En_HC	7.5 nM	6 of 6
TISTLMRYETSLKNAIA	NAQTREK	QQYHRLPIS	En_HC	4.4 nM	6 of 6
IISEVDAYLSRNTNSIA	DQSTRGS	QQYDRLPLS	En_HC	6.1 nM	6 of 6
SISMSMAFLSRNKNSVA	ENSTREY	QQYDRLPLL	En_HC	89 nM	6 of 6
KSSQSVLYEWRNKNSVA	SASTRES	QQYHRLHLS	Ctrl	nd	0 of 6
MIAGSMESQEANWAPVA	SATCKEP	QQYSRLPLM	En_Gibbs	110 nM	6 of 6
KLKELFAMWARAQGNVA	DATQRCT	QQYSRLPIT	En_Gibbs	3.5 nM	6 of 6
KSSDSILYESRNKNSVA	WASTRES	QQYHRLPLS	Ctrl	86 nM	5 of 6
KLLQTVMNETLNRNNVA	HMTTRED	QQYHRLPLS	En_HC	6.1 nM	6 of 6
KLRQSTMIESFNKNNVA	EMSTRES	QSYDRLPLS	En_HC	12 nM	6 of 6
KLSQSVLYESRNKNSVA	NASERES	QQYHRLPLS	GP_Gen	810 pM	6 of 6
KQSQSVLYENVNKNSVA	DASTRES	QQYHRLPLS	GP_HC	3.1 nM	6 of 6
KSSQSHLYESRNLNSVA	WASTRES	QQYHRLPLS	Ctrl	70 nM	5 of 6
KLSQSVLYEERNKNSVA	NASQRLS	QQYHRLPLS	GP_Gen	810 pM	6 of 6
IISGSMLMESRNKKSVA	NAETREY	QHYDRLPLS	En_HC	15 nM	5 of 6
KLYQSVEYESRNKNSVA	NASTRES	QQYHRLPLS	GP_Gen	690 pM	6 of 6
KLSQVTHSEHKAKNSIA	EMVTREK	QQYDRLPLS	En_HC	8.1 nM	6 of 6
TISSVMNHMTRIENNVA	NQDMREA	QQYDRLPLS	En_Gen	2.3 nM	6 of 6
KFSQSELYESRNKNSVA	GASTRES	QQYHRLPLS	GP_Gen	460 pM	6 of 6
HIDDFEPSEGEKWNAIA	QDATRLQ	QAYARLPLS	En_Gibbs	600 nM	3 of 6
KWSWSWLLESRVWNSVA	NASLRLS	QQYHRLPLS	GP_Gibbs	16 nM	6 of 6
KISGSVLYDSRNKNSVA	WASTRES	QQYHRLPLS	Ctrl	71 nM	6 of 6
IISQSVMFEQTLINSVA	NAQTREQ	QQYHRLPLS	En_HC	1.9 nM	6 of 6
RSSQSVLYESRNKNSVA	HCSTRES	QLYHYLPLS	Ctrl	nd	0 of 6
KLSESDLYESRNKNSVA	HASTRES	QQYHRLPLS	GP_Gen	550 pM	6 of 6
KLDQSVLYESRNKNSVA	DASTRCS	QQYHRLPLS	GP_Gen	790 pM	6 of 6
KLSKSVMYESRMKNSVA	SASTRYE	QQYHRLPLS	GP_Gibbs	1.3 nM	6 of 6
KLVQFMNRGTHHTSNIA	DAQNRCD	QQYYRLPLA	En_Gen	5.7 nM	6 of 6
KSQQSYHYESRNKNSVA	GASTRES	QQYHRLPLS	GP_HC	22 nM	6 of 6
MISQLYNFGTFAINSVA	QASLRCN	QQYDRLPLA	En_Gen	25 nM	1 of 6
KSSQSVLYEGRNKNSVA	WASTREN	QQCHRLPLS	Ctrl	nd	0 of 6
KASQSVLYESHNKNSVA	NASTRMS	QQYHRLPLS	GP_HC	6.3 nM	6 of 6
TISGLIGMPSRAHNSVA	NTSTRYQ	QQYHRLPLS	En_HC	22 nM	6 of 6
KFSQSVQYESRRLNSVA	WASTRES	QQYHRLPLS	Ctrl	34 nM	6 of 6
KLSMLGLYGQRNKNSVA	DASTRED	QQYHRLPLS	GP_Gibbs	370 pM	6 of 6
KLYFNVGTMTHNKQSIA	DMERRED	QQYHRLPLS	En_HC	1.7 nM	6 of 6
KSYWSFLYESRNKNSVA	EASTRES	QQYHRLPLS	GP_HC	2.7 nM	6 of 6
HMSMLTLQGMRARNSVA	QMTTREN	QQYDHLPLA	En_Gen	54 nM	2 of 6
KMYQSWLYESRNKNSVA	HASTREQ	QQYHRLPLS	GP_HC	2.2 nM	6 of 6
KLQQSWQYESRNKNSVA	NASTRES	QQYHRLPLS	GP_Gen	5.6 nM	6 of 6
MLSQVMHMAGAKKNSIA	DLVMRAN	QQYHRLPLS	En_Gen	90 nM	6 of 6
KISMLHNQTFEQSNNVA	EMVTREK	QQYNRLPLS	En_Gen	16 nM	5 of 6
MFSQGVMVGWLTRNSVA	NSSTREE	QQYHRLPLS	En_HC	4.5 nM	6 of 6
HISPLFMVESRLKNSVA	QTSTRES	QQYDRLPLS	En_HC	1.6 nM	6 of 6
MISQLWNMGQFAINSVA	QASIRNS	QQYDRLPLI	En_Gen	nd	0 of 6
HLGGLMTWEEKARNSVA	QQETRAE	QQYHHLPLS	En_HC	2.3 nM	6 of 6
KLAQGIYEPWRHSHNIA	EASHVCD	QQYERLPLE	En_Gibbs	31 nM	6 of 6
SVTRETDGNGLKWNSVA	DAAEAMT	QQYQRLPLT	En_Gibbs	1.1 nM	6 of 6
KSSQSVLTQSRNKNSVA	DASTRES	QQYHRLPLS	GP_HC	1.9 nM	6 of 6
KIGMTLNQLYEKVNNVA	DLVTREL	QQYHRLPLS	En_Gen	5.2 nM	6 of 6
KSGQGVLYESRNKWSVA	GASTRES	QQYHRLPLS	GP_HC	29 nM	6 of 6
KISCSSLYDDANKNSVA	NASTRLS	QQYHRLPLS	GP_Gibbs	2.0 nM	6 of 6
KSSQSVAGESRNKNSLA	WASTRES	QQYHRLPLS	Ctrl	44 nM	6 of 6
KMSQSVPYESRNKNSVA	EASTRES	QQYHRLPLS	GP_Gen	1.4 nM	6 of 6
KQSQSVLYESRNKNSVA	NGSTREV	QQYHRLPLS	GP_HC	910 pM	6 of 6
KLSQSMLYESRNKNNVA	EASTRES	QQYHRLPLS	GP_Gen	190 pM	6 of 6
KVSQSVLYESRMKNSVA	NASTRFS	QQYHRLPLS	GP_HC	1.5 nM	6 of 6
MISQLYNMGQFAINSVA	QASERNE	QQYDRLPLT	En_Gen	nd	0 of 6
KLWQSQLYESRNKNSVA	NASTRES	QQYHRLPLS	GP_Gen	750 pM	6 of 6
KSSQSVKMESRNKNSVA	DASTRES	QQYHRLPLS	GP_HC	18 nM	6 of 6
SLTSHEEESEGAEASVA	EASMLES	QQYHRLPLM	En_Gibbs	nd	0 of 6
KLSGSWLYQSRNSNAVA	EASQREQ	QQYHRLPLS	GP_Gibbs	830 pM	6 of 6
KSSQMVLYESRNKNSVA	WLSTRPS	QQYQRLPLS	Ctrl	150 nM	2 of 6
MSYGGDMLESVTRNSVA	NAETRED	QDYHRLPLS	En_HC	10 nM	6 of 6

Extract of 6 entries:

CDR-L1	CDR-L2	CDR-L3	group	apparent Kd	detected
KSSQSVLYESRNKNPVA	WASTRES	QQYHRLPLS	Ctrl	580 nM	1 of 6
SISMSMAFLSRNKNSVA	ENSTREY	QQYDRLPLL	En_HC	89 nM	6 of 6
YVSGQLAEGWNQQEAIA	HVSYKED	QQYYKLPLS	En_Gibbs	150 nM	2 of 6
KSSQSVLYEGRNKNSVA	WASTREN	QQCHRLPLS	Ctrl	nd	0 of 6
KWSWSWLLESRVWNSVA	NASLRLS	QQYHRLPLS	GP_Gibbs	16 nM	6 of 6
KLKELFAMWARAQGNVA	DATQRCT	QQYSRLPIT	En_Gibbs	3.5 nM	6 of 6

The authors' rule: three or more of the six replicates give a measured affinity, fewer mean a poor binder. Of ten entries with the parent sequence, four were seen in most replicates (averages 2.2 nM to 240 nM), three in one and three in none, so single entries are noisy. Background: pairings of all light chain designs with three empty control strains gave a value in 4% of cases (median 430 nM, 5th percentile 38 nM). Values in that range, when seen in few replicates, are hard to tell from nonspecific mating.